Consider one compound from ChEMBL document CHEMBL5376007, “Discovery of Novel PD-L1 Inhibitors That Induce the Dimerization, Internalization, and Degradation of PD-L1 Based on the Fragment Coupling Strategy” (J Med Chem, 2023).

In the test the test system is MDA-MB-231. Kind of test: Antitumor activity against human MDA-MB-231 cells cocultured with CD3/CD28/CD2 T cell activator stimulated human PBMC cells assessed as increase in tumor cell viability incubated for 12 hrs by LDH assay. The format is functional, cell-based.

On to `COc1nc(O[C@H]2CCc3c(-c4cccc(C(=O)Nc5ccc(CNC[C@@H]6CCC(=O)N6)cn5)c4Cl)cccc32)c(Cl)cc1CNC[C@@H]1CCC(=O)N1`, for which the Activity result was “Dose-Dependent Effect”.
